# scFv variants of Ab-95 (light chain) against a SARS-CoV-2 spike peptide

Target: peptide PDVDLGDISGINAS, taken from heptad repeat 2 (HR2) of SARS-CoV-2 spike.

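The starting antibody came from a phage panning campaign against this peptide. Library AAYL52 holds single substitutions and randomly drawn double and triple substitutions in the CDRs. In AlphaSeq, yeast of one mating type display the scFv and yeast of the other type display the target. Pairs that bind mate more often; barcode pairs of the diploids are counted by sequencing. The ratio of observed to expected reads was calibrated, replicate by replicate, on BCL2-family standards whose Kd was known from biolayer interferometry. The assay was run in three technical replicates.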

Parent: Ab-95, a human scFv built as VH, the linker GGGGSGGGGSGGGGS, VL. Only the CDRs of the light chain vary.
VH: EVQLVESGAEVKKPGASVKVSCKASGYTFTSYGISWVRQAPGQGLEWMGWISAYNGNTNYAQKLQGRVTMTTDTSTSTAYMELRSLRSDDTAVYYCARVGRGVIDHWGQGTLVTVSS
VL: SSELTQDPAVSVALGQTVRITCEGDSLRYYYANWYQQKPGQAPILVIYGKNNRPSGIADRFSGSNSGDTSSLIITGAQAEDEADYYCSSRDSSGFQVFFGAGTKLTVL

Each variant is given by its three light chain CDRs, as the data file delimits them; those of the parent are EGDSLRYYYAN, GKNNRPS, SSRDSSGFQVF.
Scale: log10 of Kd in nM, estimated from mating counts; low values are strong binders.
Replicates are averaged; those with no signal do not enter the mean.
Where no diploid with the target was found in that replicate, the entry reads "nd": below detection, most likely a poor binder, though not proof of it.
Background: pairings of library AAYL52 with three empty control strains gave a value in 28% of cases (median 3.91, 5th percentile 2.90). Values in that range, when seen in few replicates, are hard to tell from nonspecific mating. Also given: how often the same scFv was detected with the empty control strains, with their mean in brackets.
For reference, the parent read 2.31 as the reference entry and 2.25 as a member of this library.

| CDR-L1 | CDR-L2 | CDR-L3 | log10 Kd, replicates | mean log10 Kd (nM) | control signals |
|---|---|---|---|---|---|
| EGDSLRPYYAN | GKNNRPS | SSRLSSGFQVF | 2.63 / 2.82 / 2.64 | 2.70 | 4 of 9 (3.94) |
| EGLSLRYYYAN | GKNNRPS | SSRDFSGGQVF | 3.09 / 3.19 / 3.05 | 3.11 | 4 of 9 (3.67) |
| EGDWLRHCYAN | GKNNRPS | SSRDSSGFQVF | 2.24 / 2.53 / 2.66 | 2.48 | 1 of 9 (4.93) |
| EGDSLRYYYAQ | GKNNRPS | SSRDESGQQVF | 4.55 / nd / nd | 4.55 | 1 of 9 (4.07) |
| EGDALRYYYAT | GKNNRPS | SSRKSSGFQVF | nd / nd / 2.11 | 2.11 | 0 of 9 |
| EGDNLRYYYAN | GKNNRPS | ASRDSSGFPVF | nd / nd / nd | nd | 2 of 9 (3.28) |
| EGDSLRYYYLN | GKNTRPN | SSRDSSGFQVF | nd / nd / 3.25 | 3.25 | 1 of 9 (4.09) |
| EGDSLRYYYAN | GKNNRPS | SRTDSSGFQVF | 2.63 / 2.76 / 2.97 | 2.79 | 5 of 9 (3.75) |
| EGDSLRYYWQN | GKNNRHS | SSRDSSGFQVF | 3.61 / 4.79 / nd | 4.20 | 4 of 9 (3.69) |
| EGDSLRYYYFN | GKTNRPS | SSRDSVGFQVF | nd / 3.19 / 3.81 | 3.50 | 2 of 9 (3.82) |
| EGDSLRYLTAN | GKNNRPS | STRDSSGFQVF | 3.18 / 3.76 / 2.71 | 3.22 | 5 of 9 (4.29) |
| EGDSLNYYYAN | GKNNRPS | SSRKSSGFQVF | 2.29 / 2.22 / 1.79 | 2.10 | 2 of 9 (3.46) |
| EGDSLRYYYAN | GKNNRFS | SSRDSSGNQVI | nd / nd / nd | nd | 3 of 9 (3.48) |
| EGGSLRYYYAN | KKNNRPS | SSRLSSGFQVF | 3.32 / 3.93 / 3.93 | 3.73 | 5 of 9 (3.90) |
| EGDSLRYYYAN | GKNNRPS | SSRDSSGFAYW | 2.82 / 2.56 / 2.92 | 2.77 | 1 of 9 (3.64) |
| EKDSLRYVYAN | GKNNRPS | SSRDSSGFQVF | 3.18 / 4.24 / nd | 3.71 | 2 of 9 (3.77) |
| EGISLRYYYAN | GKNNRPS | SSFDSSGFQVF | 2.72 / 3.21 / 3.33 | 3.09 | 3 of 9 (4.07) |
| FGDSLRYYCAN | GYNNRPS | SSRDSSGFQVF | 3.77 / 3.23 / 3.18 | 3.40 | 4 of 9 (3.85) |
| EGDSLGYYYAK | GKNNRPS | SSRDSSGFQVT | nd / nd / nd | nd | 0 of 9 |
| EGDSLRYYYAN | GKNNRPS | SSRDSGGFQVT | 3.07 / 2.74 / 3.28 | 3.03 | 0 of 9 |
| EGDSQRYYRAN | GKNARPS | SSRDSSGFQVF | 2.93 / 3.34 / 3.91 | 3.39 | 6 of 9 (3.39) |
| EGDSLRYYYAN | GKNNRPS | HSRNSSGIQVF | 2.50 / 2.44 / 2.59 | 2.51 | 0 of 9 |
| EGDSLREYYAN | GANNVPS | SSRDSSGFQVF | 4.11 / 3.81 / 3.29 | 3.74 | 4 of 9 (3.81) |
| EGDVERYYYAN | GGNNRPS | SSRDSSGFQVF | 4.02 / 4.51 / 3.06 | 3.86 | 0 of 9 |
| EGDSLRYSYAY | GKNNRPI | SSRDSSGFQVF | 3.30 / 4.97 / 3.65 | 3.97 | 4 of 9 (4.23) |
| EGDSLPYYDAN | GKNNQPS | SSRDSSGFQVF | 1.44 / 1.53 / 1.01 | 1.33 | 1 of 9 (3.38) |
| EGDSLRYYYHN | GKNNRPS | SSRDSSGCQHF | nd / 3.98 / nd | 3.98 | 1 of 9 (4.60) |
| ELDSLRYYYAD | GWNNRPS | SSRDSSGFQVF | 3.41 / nd / nd | 3.41 | 1 of 9 (4.93) |
| EGDSLRYYYAN | GKVNRPE | SSRDSSGFQVL | 2.97 / 3.74 / 3.36 | 3.36 | 4 of 9 (3.75) |
| EGDRLRYYYAN | GKNNRPS | SSRDPSGFQVW | 3.67 / 3.42 / nd | 3.55 | 4 of 9 (3.78) |
| EGDSLRYYYAN | GPINRPS | SSRDSSGFYVF | nd / 4.06 / nd | 4.06 | 5 of 9 (3.52) |
| EGDSLRVYYAN | NKNNRPS | SSRDLSGFQVF | nd / 5.44 / nd | 5.44 | 1 of 9 (4.70) |
| EGDSLRLYYAN | GKDNRPM | SSRDSSGFQVF | 3.59 / 3.50 / 3.25 | 3.45 | 3 of 9 (3.42) |
| PGDSTRYYPAN | GKNNRPS | SSRDSSGFQVF | 3.07 / nd / nd | 3.07 | 4 of 9 (4.00) |
| EGDSLRYYYAN | GKNNRPS | SSRDHSGISVF | nd / nd / nd | nd | 1 of 9 (4.37) |
| EGDSLRYYAAN | GKNNRPS | SSRDSNGFDVF | 2.73 / 2.40 / nd | 2.57 | 0 of 9 |
| EGPSLRYYYAN | GKNNRPS | SSRDSSGQNVF | 2.29 / 2.04 / 1.81 | 2.05 | 2 of 9 (4.18) |
| EGDSLRYYLAN | GVNNRPS | SSRDSSGFQYF | 2.62 / nd / 2.15 | 2.38 | 0 of 9 |
| EGDSLRYYYAN | GKNNRPS | SSRCSSGFQYF | 4.18 / nd / 4.83 | 4.50 | 3 of 9 (4.53) |
| EGDSLRYYIAN | GVNNRPS | SSRDSSGKQVF | 4.99 / 3.73 / 3.46 | 4.06 | 6 of 9 (4.37) |
| EGDSLRYYYAN | GKTNRPS | SSRDSSGFQVF | 2.95 / 3.22 / 3.19 | 3.12 | 3 of 9 (3.88) |
| ELDSLRYYYAN | GKNDRPS | SSRDSSEFQVF | nd / 3.11 / 3.51 | 3.31 | 1 of 9 (4.26) |
| EGDSLRYYMAN | GKNNRPS | SSRTSSGFVVF | 2.38 / 2.52 / 1.77 | 2.22 | 5 of 9 (4.12) |
| EGDSLRYYYAN | GKNNKLS | SSRDSSMFQVF | nd / nd / nd | nd | 1 of 9 (4.21) |
| EGHSLRYYYAR | GKNNRPS | SSRDSMGFQVF | 3.09 / 3.12 / 3.05 | 3.09 | 2 of 9 (3.51) |
| EGDSLRYPYAN | GKNNRPM | SSRDSSGFQVQ | 1.79 / 1.65 / 1.11 | 1.52 | 1 of 9 (3.46) |
| EGDVLRYYYIN | GKNNRPS | SSRDSSGYQVF | 5.13 / nd / nd | 5.13 | 3 of 9 (3.79) |
| ERDSLRYYYAN | GKNNRPS | SHRDSSGFQVM | nd / nd / nd | nd | 1 of 9 (4.11) |
| EGDSCRYYYAN | NKNNRPS | SSRESSGFQVF | 4.96 / nd / nd | 4.96 | 2 of 9 (3.91) |
| DYDTLRYYYAN | GKNNRPS | SSRDSSGFQVF | nd / nd / 3.35 | 3.35 | 1 of 9 (4.72) |

Extract of 8 entries:

{"CDR-L1": "EGDSLRYYYAN", "CDR-L2": "GKNNRFS", "CDR-L3": "SSRDSSGNQVI", "log10 Kd, replicates": "nd / nd / nd", "mean log10 Kd (nM)": "nd", "control signals": "3 of 9 (3.48)"}
{"CDR-L1": "EGDSLRLYYAN", "CDR-L2": "GKDNRPM", "CDR-L3": "SSRDSSGFQVF", "log10 Kd, replicates": "3.59 / 3.50 / 3.25", "mean log10 Kd (nM)": "3.45", "control signals": "3 of 9 (3.42)"}
{"CDR-L1": "EGDSLRYSYAY", "CDR-L2": "GKNNRPI", "CDR-L3": "SSRDSSGFQVF", "log10 Kd, replicates": "3.30 / 4.97 / 3.65", "mean log10 Kd (nM)": "3.97", "control signals": "4 of 9 (4.23)"}
{"CDR-L1": "EGDSLRYYYAN", "CDR-L2": "GKNNRPS", "CDR-L3": "SSRDSGGFQVT", "log10 Kd, replicates": "3.07 / 2.74 / 3.28", "mean log10 Kd (nM)": "3.03", "control signals": "0 of 9"}
{"CDR-L1": "EGDSQRYYRAN", "CDR-L2": "GKNARPS", "CDR-L3": "SSRDSSGFQVF", "log10 Kd, replicates": "2.93 / 3.34 / 3.91", "mean log10 Kd (nM)": "3.39", "control signals": "6 of 9 (3.39)"}
{"CDR-L1": "EKDSLRYVYAN", "CDR-L2": "GKNNRPS", "CDR-L3": "SSRDSSGFQVF", "log10 Kd, replicates": "3.18 / 4.24 / nd", "mean log10 Kd (nM)": "3.71", "control signals": "2 of 9 (3.77)"}
{"CDR-L1": "EGDWLRHCYAN", "CDR-L2": "GKNNRPS", "CDR-L3": "SSRDSSGFQVF", "log10 Kd, replicates": "2.24 / 2.53 / 2.66", "mean log10 Kd (nM)": "2.48", "control signals": "1 of 9 (4.93)"}
{"CDR-L1": "EGPSLRYYYAN", "CDR-L2": "GKNNRPS", "CDR-L3": "SSRDSSGQNVF", "log10 Kd, replicates": "2.29 / 2.04 / 1.81", "mean log10 Kd (nM)": "2.05", "control signals": "2 of 9 (4.18)"}

Source: Engelhart et al. 2022 (doi:10.1038/s41597-022-01779-4), MIT Lincoln Laboratory and A-Alpha Bio; data file from the FLAb repository.